The numbers were not newly measured in patent US8614182B2, “GLP-1 analogues and their pharmaceutical salts and uses” (Jiangsu Hansoh Pharmaceuticals Co., Ltd., priority 2009, dated 2013), which cites them from elsewhere.

For the data set the following is noted: cited from earlier work.

Take “glucose-dependent insulinotropic polypeptide [GIP]”: the in vivo half-life was 5 to 7 min.
